# Assay results: ChEMBL document CHEMBL5143570, “Development of naringenin-O-carbamate derivatives as multi-target-directed liagnds for the treatment of Alzheimer's disease” (Bioorg Med Chem Lett, 2022)
# The chains behind the UniProt entries cited, without tags or fusion partners.
# UniProt P06276, whole entry: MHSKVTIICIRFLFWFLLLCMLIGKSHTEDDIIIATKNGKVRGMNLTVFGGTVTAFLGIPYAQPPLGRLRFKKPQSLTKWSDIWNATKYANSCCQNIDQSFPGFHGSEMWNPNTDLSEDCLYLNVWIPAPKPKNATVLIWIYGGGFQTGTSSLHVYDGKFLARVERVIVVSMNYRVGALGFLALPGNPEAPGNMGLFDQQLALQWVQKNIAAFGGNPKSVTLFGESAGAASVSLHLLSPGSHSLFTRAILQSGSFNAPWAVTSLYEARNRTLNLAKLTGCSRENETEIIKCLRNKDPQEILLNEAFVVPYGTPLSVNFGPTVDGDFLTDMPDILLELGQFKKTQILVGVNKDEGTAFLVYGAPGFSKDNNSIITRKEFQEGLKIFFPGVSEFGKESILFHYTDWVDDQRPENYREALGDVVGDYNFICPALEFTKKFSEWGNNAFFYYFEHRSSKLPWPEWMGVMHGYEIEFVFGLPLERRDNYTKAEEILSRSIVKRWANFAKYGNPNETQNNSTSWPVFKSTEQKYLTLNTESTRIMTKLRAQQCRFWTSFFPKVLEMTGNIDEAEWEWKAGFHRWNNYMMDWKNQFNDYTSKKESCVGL
# Biological target: Cholinesterase (Homo sapiens, UniProt P06276)
# Experiment: Inhibition of human serum BuChE using butyrylthiocholine as substrate incubated for 15 mins by DTNB reagent based Ellman's method
# Format: cell-free
smiles,measurement,value
CCN(C)C(=O)Oc1cccc([C@H](C)N(C)C)c1 [RIVASTIGMINE],IC50,4.3 µM
